Reference: paper PMC8333062, “Chemical tools for epichaperome-mediated interactome dysfunctions of the central nervous system” (Nature Communications, 2021)

Assay: PAMPA-BBB permeability

Cn1c(=O)c2c(ncn2C)n(C)c1=O [caffeine, reference compound]
PAMPA-BBB (PB) permeability Pe: 4.7 ± 0.1 10^−6 cm s^−1
